Screening data (PubChem BioAssay)
MLL AF4-AF9 inh: inhibitors of AF4 peptide binding to AF9, primary screen, biochemical, AlphaScreen, biotin-AF4 peptide, FLAG-AF9, single point | inhibition, % at 10 µM | 0.47% of 350,000 active;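 active means every replicate reaching a set inhibition limit, whatever the replicate mean, cut at about 25% in these data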;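 further: 0% = plate neutral control median and 100% = total signal loss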
SIRT5 block: SIRT5 desuccinylase inhibitors, primary screen, biochemical, fluorescence imaging, single point, set 5 | Purified SirT5, succinyl-peptide AMC, trypsin-coupled fluorescence | 1.1% of 330,000 active | inhibition, % at 15 µM | NAD-dependent protein deacylase sirtuin-5, mitochondrial (Homo sapiens), Q9NXA8; in the data active means inhibition above about 15%
RAD52 inh: RAD52 DNA annealing inhibitors, primary screen, biochemical, FRET, single point, set 2. recombinant RAD52 DNA annealing, FRET fluorescence. DNA repair protein RAD52 homolog (Homo sapiens), P43351. inhibition, % at 18.7 µM. 0.46% of 360,000 active. AID 651710, 2012;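 active means every replicate showing at least 50% inhibition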
RAD54 branch: inhibitors of human RAD54 branch migration, primary screen, biochemical, fluorescence, single point | DNA repair and recombination protein RAD54-like (Homo sapiens), Q92698 | RAD54 Holliday junction branch migration, FAM/BHQ fluorescence | inhibition, % at 10.4 µM | 0.14% of 360,000 active | AID 602329, 2012;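 active means mean normalized replicate activity at least 40 and at least half of replicates scoring 40 or more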;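 further: 0% = median of neutral control wells and 100% = median of positive control wells; inhibitors cause a drop in the FAM fluorescence signal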
E-selectin induc: E-selectin induction in HUVECs, primary screen, imaging, HUVEC, immunofluorescence imaging, single point; P16581; activation, % at 7.58 µM; 0.37% of 260,000 active; normalized: neutral wells 0, TNF-alpha wells 100; AID 686992, 2013;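 active means mean E-selectin-positive cell signal at least 10% of the positive control, reached in at least 60% of replicates, without over 20% cell loss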
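System: HUVEC, human umbilical vein endothelial cells; quantity: 3,000 cells/well; buffer or medium: EGM-2 medium, gelatin-coated wells; dosing: single-point compound dose; detection: immunofluorescence imaging; evaluation: % PE-positive cells; benchmarks: TNF-alpha, DMSO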
Yeast UUG start: yeast start codon fidelity modulation | S. cerevisiae UUG-firefly luciferase reporter, luminescence/redox ratio | activity score, % at 18.7 µM | hit rate 0.13% among 350,000 | AID 602363;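 active means replicate mean at a twofold rise or more, about +100% in these data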;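 further: firefly luciferase made from a UUG start codon reports start codon fidelity; reporter light over untreated wells divided by growth signal over untreated wells; some hits fall short of that in this replicate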
* marks the source's active call; other numbers are inactive results; · = not tested or not shown; ! = not active in a repeat. Shown are actives, neighbours in structure and some others; about 1.8% of the full set was active somewhere.

By UniProt entry, the sequences of proteins in these tests, tags left out.
DNA repair and recombination protein RAD54-like (Homo sapiens), Q92698, UniProt Q92698, whole entry, looked up: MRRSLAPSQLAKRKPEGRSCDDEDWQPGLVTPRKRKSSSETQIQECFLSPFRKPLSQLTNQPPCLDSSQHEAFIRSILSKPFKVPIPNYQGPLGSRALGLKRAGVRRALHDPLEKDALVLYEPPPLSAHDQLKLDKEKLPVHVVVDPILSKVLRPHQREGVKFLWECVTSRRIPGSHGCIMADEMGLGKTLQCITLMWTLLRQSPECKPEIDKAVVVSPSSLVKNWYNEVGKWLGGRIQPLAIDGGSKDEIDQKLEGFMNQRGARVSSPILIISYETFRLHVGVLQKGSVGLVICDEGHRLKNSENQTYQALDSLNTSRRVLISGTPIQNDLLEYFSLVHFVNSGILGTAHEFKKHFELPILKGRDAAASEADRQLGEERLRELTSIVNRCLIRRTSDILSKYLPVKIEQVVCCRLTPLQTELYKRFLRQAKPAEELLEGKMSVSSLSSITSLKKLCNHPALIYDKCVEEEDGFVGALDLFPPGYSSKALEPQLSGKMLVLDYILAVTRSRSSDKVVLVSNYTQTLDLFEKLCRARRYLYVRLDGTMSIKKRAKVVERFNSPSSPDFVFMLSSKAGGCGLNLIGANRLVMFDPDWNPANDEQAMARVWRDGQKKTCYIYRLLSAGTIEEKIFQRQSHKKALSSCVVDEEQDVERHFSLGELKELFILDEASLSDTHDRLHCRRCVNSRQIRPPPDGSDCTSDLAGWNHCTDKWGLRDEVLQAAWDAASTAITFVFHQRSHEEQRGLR

Below each compound: MLL AF4-AF9 inh, SIRT5 block, RAD52 inh, RAD54 branch, E-selectin induc, Yeast UUG start
[1] CC(C)NC(=O)N(C)C[C@@H]1Oc2ccc(NC(=O)Cc3ccccc3)cc2C(=O)N([C@@H](C)CO)C[C@@H]1C
→ -3, -2, -8, 0, ·, 0
[2] CC(=O)N(C)C[C@@H]1Oc2cc(C#Cc3cccc(F)c3)ccc2S(=O)(=O)N([C@@H](C)CO)C[C@H]1C
→ -1, 0, 9, 9, 0, 7
[3] CCOC(=O)c1sc2nc(C)cc(C)c2c1N
→ ·, ·, ·, 5, ·, -7
[4] CCOC(=O)c1sc2nc(OCc3cccnc3)cc(C)c2c1N
→ -2, 25*, 10, ·, 0, ·
[5] Cc1ccc(S(=O)(=O)Nc2ccc3c(c2)C(=O)N([C@H](C)CO)C[C@@H](C)[C@H](CN(C)C(=O)NC(C)C)O3)cc1
→ -5, -4, 0, 9, 0, -5
[6] C[C@@H]1CN([C@@H](C)CO)C(=O)c2cc(NS(=O)(=O)c3cccs3)ccc2O[C@H]1CN(C)Cc1ccncc1
→ -1, -2, -6, 4, -3, -7
[7] O=S(=O)(c1cccs1)N1CCCCN2[C@H](CO)[C@H](c3ccc(C4=CCCCC4)cc3)[C@H]2C1
→ -4, 20*, 57*, -3, ·, -4
[8] O=S(=O)(c1cccs1)N1CCCCN2[C@H](C1)[C@H](c1ccc(C3=CCCC3)cc1)[C@@H]2CO
→ -3, 2, -16, -9, -1, 10
[9] CS(=O)(=O)N1CCCCN2[C@H](CO)[C@H](c3ccc(C4=CCCC4)cc3)[C@@H]2C1
→ -5, 6, -12, 2, 0, 9
[10] COc1ccc(S(=O)(=O)N2CCCCN3[C@H](CO)[C@H](c4ccc(C5=CCCCC5)cc4)[C@H]3C2)cc1
→ 1, 0, 60*, -6, ·, -3
[11] CS(=O)(=O)N1CCCCN2[C@H](CO)[C@@H](c3ccc(C4=CCCC4)cc3)[C@H]2C1
→ 28*, ·, ·, -2, 0, -6
[12] Cc1noc(C)c1NC(=O)N(C)C[C@@H]1OCCCC[C@@H](C)Oc2ccc(NS(=O)(=O)c3ccc(F)cc3)cc2C(=O)N([C@H](C)CO)C[C@H]1C
→ 5, 0, 7, 0, 0, 4
[13] O=C(C[C@@H]1CC[C@@H]2[C@H](COC[C@H](O)CN2Cc2cccc(C(F)(F)F)c2)O1)NCc1ccncc1
→ 0, 3, -4, -4, 0, -8
[14] O=C(c1ccc(F)cc1)N1CC(=O)N2[C@H](C1)[C@H](c1ccc(C#CCC3CCCC3)cc1)[C@@H]2CO
→ -1, 19*, 3, ·, 0, ·
[15] O=C(c1ccc2c(c1)OCO2)N1CC(=O)N2[C@H](C1)[C@H](c1ccc(C#CCC3CCCC3)cc1)[C@@H]2CO
→ 2, 24*, 4, ·, -1, ·
[16] O=C(c1ccc2c(c1)OCO2)N1CC(=O)N2[C@H](CO)[C@@H](c3ccc(C#CCC4CCCC4)cc3)[C@H]2C1
→ 7, 16*, 5, ·, -1, ·
[17] O=C(c1ccc2c(c1)OCO2)N1CC(=O)N2[C@H](C1)[C@@H](c1ccc(C#CCC3CCCC3)cc1)[C@@H]2CO
→ 7, 18*, 26, ·, -1, ·
[18] O=C(c1ccc2c(c1)OCO2)N1CC(=O)N2[C@H](CO)[C@@H](c3ccc(C#CC4CCCC4)cc3)[C@H]2C1
→ 8, 0, -13, ·, -1, ·
[19] CCCNC(=O)C[C@@H]1CC[C@@H]2[C@@H](COc3ccc(NC(=O)Nc4cccc(C)c4)cc3C(=O)N2C)O1
→ 3, -1, 0, -9, 0, -19
[20] O=C(Nc1ccc(C(F)(F)F)cc1)N1C[C@@H]2N[C@H](C1)C2c1ccc(/C=C/c2ccccc2)cc1 (stereo not given in full)
→ -4, 12, 65*, ·, 0, ·
[21] O=C(Nc1ccc(C(F)(F)F)cc1)N1[C@@H]2CNC[C@H]1C2c1ccc(-c2cccnc2)cc1 (stereo not given in full)
→ 2, 3, 19, ·, 0, ·
[22] O=C(Nc1ccc(C(F)(F)F)cc1)N1[C@@H]2CNC[C@H]1C2c1ccc(-c2ccc(F)cc2)cc1 (stereo not given in full)
→ -5, 4, 61*, ·, 0, ·
[23] O=C(Nc1ccc(C(F)(F)F)cc1)N1C[C@@H]2N[C@H](C1)C2c1ccc(-c2ccccc2)cc1 (stereo not given in full)
→ 0, 21*!, 79*!, ·, 0, ·
[24] O=C(C1CCC1)N1C[C@@H]2N[C@H](C1)C2c1ccc(/C=C/c2ccccc2)cc1 (stereo not given in full)
→ 16, -3, 44, ·, 0, ·
[25] COC(=O)c1cc(=O)n(-c2ccc(F)cc2)c(=Nc2ccc(F)cc2)s1
→ 27*, -6, -13, -5, 0, -10
[26] Cc1nnc(C)c2c(C)n(-c3ccccc3)c(C)c12
→ 19, -2, 0, -10, 0, -11
[27] Cc1nnc(C)c2c(C)n(C(c3ccccc3)c3ccccc3)c(C)c12
→ 30*, -1, 2, -9, ·, 6
[28] CCOC(=O)c1c(-c2ccc(C)cc2)csc1NC(=O)CCN1CC(C)OC(C)C1 (stereo not given)
→ 6, 20*, -1, -3, 0, -1
[29] CCCCN(C)CCNC(=O)c1ccc(Cn2c(=S)[nH]c3ccc(Br)cc3c2=O)cc1
→ 13, 49*, 5, ·, ·, ·
[30] C[C@@H]1CN([C@@H](C)CO)C(=O)c2cc(C#CC3CCCC3)cnc2O[C@H]1CN(C)C(=O)c1ccncc1
→ 1, 3, 0, 0, 2, 7
[31] C[C@@H]1CN([C@H](C)CO)C(=O)Cc2cc(NS(=O)(=O)c3ccc(F)cc3)ccc2O[C@H]1CN(C)Cc1ccc(C(F)(F)F)cc1
→ -1, 23*, 5, -7, 0, 17
[32] C[C@@H]1CN([C@H](C)CO)C(=O)Cc2cc(NS(=O)(=O)c3ccc(Cl)cc3)ccc2O[C@@H]1CN(C)Cc1ccc(C(F)(F)F)cc1
→ 0, -3, -6, 6, 1, -8
[33] Cc1ccc(S(=O)(=O)Nc2ccc3c(c2)CC(=O)N([C@H](C)CO)C[C@@H](C)[C@@H](CN(C)Cc2ccc(C(F)(F)F)cc2)O3)cc1
→ ·, ·, ·, ·, 1, ·
[34] C[C@@H]1CN([C@@H](C)CO)C(=O)Cc2cc(NS(=O)(=O)c3ccc(F)cc3)ccc2O[C@@H]1CN(C)Cc1ccc(C(F)(F)F)cc1
→ 0, 18*, 20, -5, 0, 9
[35] C[C@H]1CN([C@@H](C)CO)C(=O)Cc2cc(NS(=O)(=O)c3ccc(F)cc3)ccc2O[C@@H]1CN(C)Cc1ccc(C(F)(F)F)cc1
→ 0, 20*, 17, -6, 0, 16

Given field by field: entries from further up.
25: COC(=O)c1cc(=O)n(-c2ccc(F)cc2)c(=Nc2ccc(F)cc2)s1
- MLL AF4-AF9 inh: 27*
- SIRT5 block: -6
- RAD52 inh: -13
- RAD54 branch: -5
- E-selectin induc: 0
- Yeast UUG start: -10
29: CCCCN(C)CCNC(=O)c1ccc(Cn2c(=S)[nH]c3ccc(Br)cc3c2=O)cc1
- MLL AF4-AF9 inh: 13
- SIRT5 block: 49*
- RAD52 inh: 5
- RAD54 branch: ·
- E-selectin induc: ·
- Yeast UUG start: ·
21: O=C(Nc1ccc(C(F)(F)F)cc1)N1[C@@H]2CNC[C@H]1C2c1ccc(-c2cccnc2)cc1 (stereo not given in full)
- MLL AF4-AF9 inh: 2
- SIRT5 block: 3
- RAD52 inh: 19
- RAD54 branch: ·
- E-selectin induc: 0
- Yeast UUG start: ·
31: C[C@@H]1CN([C@H](C)CO)C(=O)Cc2cc(NS(=O)(=O)c3ccc(F)cc3)ccc2O[C@H]1CN(C)Cc1ccc(C(F)(F)F)cc1
- MLL AF4-AF9 inh: -1
- SIRT5 block: 23*
- RAD52 inh: 5
- RAD54 branch: -7
- E-selectin induc: 0
- Yeast UUG start: 17
